Reference: patent US11752155B2, “Treatment of autism spectrum disorders, obsessive-compulsive disorder and anxiety disorders” (Rugen Holdings (Cayman) Limited, priority 2016, dated 2023)

The chains behind the UniProt entries cited, without tags or fusion partners. Residues count along the entry.
UniProt Q12879, 23-1464: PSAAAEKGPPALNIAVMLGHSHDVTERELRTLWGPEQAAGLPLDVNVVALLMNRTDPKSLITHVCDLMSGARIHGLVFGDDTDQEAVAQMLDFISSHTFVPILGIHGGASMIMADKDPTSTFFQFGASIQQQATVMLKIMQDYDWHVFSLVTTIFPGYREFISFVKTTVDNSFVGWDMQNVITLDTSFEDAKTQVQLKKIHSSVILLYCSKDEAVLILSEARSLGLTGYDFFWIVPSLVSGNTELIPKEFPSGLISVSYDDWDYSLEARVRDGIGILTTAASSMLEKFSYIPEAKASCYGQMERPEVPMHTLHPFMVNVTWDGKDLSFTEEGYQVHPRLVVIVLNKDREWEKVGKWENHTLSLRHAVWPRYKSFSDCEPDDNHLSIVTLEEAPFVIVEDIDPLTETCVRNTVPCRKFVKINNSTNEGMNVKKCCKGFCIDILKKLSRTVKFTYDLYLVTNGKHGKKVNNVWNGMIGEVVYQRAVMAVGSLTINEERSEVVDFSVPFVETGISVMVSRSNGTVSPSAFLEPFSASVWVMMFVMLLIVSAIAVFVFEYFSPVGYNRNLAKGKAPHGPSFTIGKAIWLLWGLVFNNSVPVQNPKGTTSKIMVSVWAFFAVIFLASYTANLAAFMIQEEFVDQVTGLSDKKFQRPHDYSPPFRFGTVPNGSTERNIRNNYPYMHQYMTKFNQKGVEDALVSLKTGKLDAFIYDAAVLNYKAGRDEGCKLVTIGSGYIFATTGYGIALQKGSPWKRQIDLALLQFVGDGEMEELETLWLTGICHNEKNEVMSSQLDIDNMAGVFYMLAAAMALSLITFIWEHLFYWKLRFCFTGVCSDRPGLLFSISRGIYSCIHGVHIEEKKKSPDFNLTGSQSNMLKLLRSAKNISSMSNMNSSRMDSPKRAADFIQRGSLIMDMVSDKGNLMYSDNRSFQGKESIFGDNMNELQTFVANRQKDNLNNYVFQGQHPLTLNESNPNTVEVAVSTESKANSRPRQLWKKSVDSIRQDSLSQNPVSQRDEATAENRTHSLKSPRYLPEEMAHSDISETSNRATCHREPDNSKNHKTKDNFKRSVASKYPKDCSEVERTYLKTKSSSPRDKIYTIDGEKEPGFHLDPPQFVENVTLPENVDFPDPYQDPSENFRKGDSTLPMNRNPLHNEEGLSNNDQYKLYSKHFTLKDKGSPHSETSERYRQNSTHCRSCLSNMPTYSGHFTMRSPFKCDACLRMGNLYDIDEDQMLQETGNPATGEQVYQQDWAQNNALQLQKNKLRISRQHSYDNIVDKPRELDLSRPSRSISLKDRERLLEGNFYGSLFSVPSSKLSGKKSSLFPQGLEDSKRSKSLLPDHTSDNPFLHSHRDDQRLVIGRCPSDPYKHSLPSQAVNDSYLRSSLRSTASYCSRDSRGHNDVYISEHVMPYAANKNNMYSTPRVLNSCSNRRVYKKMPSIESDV

Molecular target: human NR1/NR2A (Homo sapiens (Human), UniProt Q05586+Q12879)
Assay: NR2A antagonist activity: calcium influx (Fluo-4) assay in HEK293 cells
Format: cell-based
Experimental: Activation of the NR2A or NR2B subtype of NMDA receptor with glutamate as an agonist and glycine co-agonist on these cells results in calcium influx, which can be monitored with fluorescent indicator Fluo-4.
For experiments, the cells were seeded onto poly-D-lysine-coated 96-well black plates with clear bottom (Corning) at a density of ˜50,000 cells/well. After overnight culture, the growth medium was removed from the wells and the cells were incubated at 37° C. for 60 minutes in Hanks buffer containing 4 μM fluo-4-AM (Invitrogen) and 0.1% bovine serum albumin (BSA). […] The cell plates were placed onto an FDSS Cell fluorescence reader (Hamamatsu). After 20 seconds of reading background fluorescence, agonist glutamate at final 100 µM and co-agonist glycine at final 50 μM were added to the cells to activate the receptor, and the resulting fluorescence changes were recorded and quantified. Based on the changes in fluorescence intensity, the pharmacological effect of test compounds was analyzed and the IC50 values derived from a non-linear least squares fitting of the concentration-dependent response to a standard logistic equation using Prism (Graphpad Software, Inc.): Amplitude=Max Amplitude/(1+(IC50/[antagonist])^n).

For `FC(F)(F)c1ccc(C(F)(F)CN2CCC(Nc3ncnc4[nH]ccc34)CC2)cn1` [C-127^A′], the IC50 was over 10 µM.
